HDAC3 inhib: HDAC3 deacetylase inhibitors, primary screen, biochemical, fluorescence, cell-free homogeneous | recombinant HDAC3, fluorogenic peptide/trypsin coupled | inhibition, % at 8.3 µM | 320,000 compounds, 0.15% hits | AID 2718, 2010; in the data active means inhibition above about 26%, passing the limit was not always enough; inconclusive means no clear call, values can overlap the other calls
UUG fidelity: yeast start codon fidelity modulation; AID 602363; activity score, % at 18.7 µM; S. cerevisiae UUG-firefly luciferase reporter, luminescence/redox ratio; 0.13% of 350,000 active;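 active means replicate mean at a twofold rise or more, about +100% in these data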;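 further: firefly luciferase made from a UUG start codon reports start codon fidelity; reporter light over untreated wells divided by growth signal over untreated wells; some hits fall short of that in this replicate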
ALR H2O2 inh: inhibitors of human ALR sulfhydryl oxidase, primary screen, biochemical, H2O2 detection, HRP-luminol luminescence, single point; purified ALR, DTT oxidation; inhibition, % (no concentration beside the values); 290,000 tested, 3.8% active;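 active = mean and each replicate at 75% or more; inconclusive = only one of the two met; inactive = neither met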;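 also: stock transfer was 7.5 nL into about 7.5 µL; 0% = neutral wells and 100% = wells with inactivated enzyme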
MC4R ag barr: MC4R agonists recruiting beta-arrestin, primary screen, cell-based, luminescence, agonist arm of biased-ligand search; Melanocortin receptor 4 (Homo sapiens), P32245; U2OS MC4R beta-arrestin complementation; percent of melanotan II response, DMSO zero; activation, % at 8.9 µM; 360,000 compounds, 0.98% hits; AID 540308, 2011;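 active means activation above a per-plate cutoff, the mean activation of sample wells on that plate plus 3 SD, cut at about 8% in these data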
MC4R antag cAMP: MC4R antagonists of cAMP signaling, primary screen, cell-based, TR-FRET, antagonist arm of biased-ligand search; MC4R-expressing cells, MTII-stimulated cAMP, LANCE TR-FRET; Melanocortin receptor 4 (Homo sapiens), P32245; 360,000 compounds, 0.48% hits; inhibition, % at 6.5 µM;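 active means inhibition above its plate's cutoff, the mean of tested wells on that plate plus 3 SD, cut at about 29% in these data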;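 further: 0% = Melanotan II alone and 100% = Melanotan II plus saturating MCL0020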
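Assay system: U2OS-MC4R stable cell line; Also added: Melanotan II; Technique: Eu-cAMP/anti-cAMP TR-FRET, emission 671 nm; Times: 30-min compound, 1-h challenge, 1-h detection, room temperature.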
NALP1 yeast inh: NALP1 inflammasome inhibitors in reconstituted yeast, colorimetric, S. cerevisiae, triplicate retest | S. cerevisiae NALP1/ASC/caspase-1 growth, X-gal OD620, 72 h | inhibition, % at 10 µM | 280,000 compounds, 0.61% hits | AID 2071, 2009; in the data active means inhibition mostly above about 24%, no sharp cut-off; inactive means mostly below about 32%
Starred values were filed as active, the others as inactive; ? = inconclusive; . = no result. An excerpt weighted towards active compounds, which were near 4.2% of everything screened.

The chains behind the UniProt entries cited, without tags or fusion partners.
Melanocortin receptor 4 (Homo sapiens), P32245, UniProt P32245, whole entry, looked up: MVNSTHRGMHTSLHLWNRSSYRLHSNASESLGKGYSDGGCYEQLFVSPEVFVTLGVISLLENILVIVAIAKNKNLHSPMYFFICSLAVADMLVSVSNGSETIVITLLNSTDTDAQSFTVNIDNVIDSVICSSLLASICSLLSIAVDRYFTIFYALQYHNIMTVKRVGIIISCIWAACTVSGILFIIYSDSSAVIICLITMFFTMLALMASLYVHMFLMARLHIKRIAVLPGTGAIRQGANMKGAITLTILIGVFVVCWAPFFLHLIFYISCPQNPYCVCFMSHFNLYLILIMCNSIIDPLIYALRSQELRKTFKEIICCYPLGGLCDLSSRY

Screens by letter – A = HDAC3 inhib; B = UUG fidelity; C = ALR H2O2 inh; D = MC4R ag barr; E = MC4R antag cAMP; F = NALP1 yeast inh
#1 CCCCN(CC)CCNC(=O)CCC(=O)Nc1ccc2nc(N3CCN(C)CC3)cc(C)c2c1
  A: -21	B: 2	C: 0	D: -1	E: -9	F: 36*

#2 Cc1ccc(S(=O)(=O)Nc2cccc3c2O[C@@H](CN(C)C(=O)Nc2ccc(F)cc2)[C@H](C)CN([C@H](C)CO)C3=O)cc1
  A: .	B: 7	C: .	D: .	E: .	F: .

#3 N#CC(C#N)=Cc1ccc(OC(=O)c2ccccn2)cc1
  A: 3	B: .	C: 97*	D: -1	E: 10	F: 26

#4 COC(=O)c1ccc(OC(=O)c2ccccn2)cc1
  A: 46*	B: -15	C: 96*	D: 0	E: 1	F: -6

#5 COC(=O)c1ccc(/C=C(\C#N)c2ccccn2)cc1
  A: .	B: -2	C: 2	D: -1	E: 3	F: 1

#6 NC(=O)c1ccsc1NC(=O)COC(=O)COc1ccccc1F
  A: 4	B: .	C: 78*	D: -2	E: 2	F: 20

#7 O=C(O)C[C@H]1C=C[C@@H](NC(=O)Nc2ccccc2)[C@@H](CO)O1
  A: .	B: -21	C: .	D: .	E: .	F: .

#8 Cc1sc2nc(SCc3ccccc3)n(Cc3ccco3)c(=O)c2c1C
  A: 7	B: -12	C: 3	D: 1	E: 0	F: 17

#9 Cc1ccc(CSc2nc3sc(C)c(C)c3c(=O)n2Cc2ccco2)cc1
  A: 2	B: -10	C: 97*	D: -2	E: 13	F: 13

#10 Cc1cc2c(=O)n(Cc3ccco3)c(SCC(=O)c3ccc(Cl)s3)nc2s1
  A: 27*	B: -4	C: 0	D: 2	E: 4	F: 12

#11 CCOC(=O)CC(=O)CSc1nc2sc(C)cc2c(=O)n1Cc1ccco1
  A: 6	B: -2	C: -1	D: 1	E: 2	F: 20

#12 O=S(=O)(N[C@@H]1CC[C@@H](CCn2cc(-c3ccccn3)nn2)O[C@@H]1CO)c1cccc(F)c1
  A: .	B: -8	C: .	D: .	E: .	F: .

#13 CCCCn1nnc(NC(=O)c2ccc(-c3ccccc3[N+](=O)[O-])o2)n1
  A: ?	B: -4	C: -17	D: -2	E: 3	F: 30*

#14 COc1cc(N/N=C(\C)c2ccc(O)c(C)c2)nc(-c2ccccc2)n1
  A: 0	B: .	C: 10	D: 2	E: 3	F: 1

#15 COc1cc(N/N=C(\C)c2ccc(N)cc2)nc(-c2ccccc2)n1
  A: 19	B: .	C: 98*	D: -2	E: 12	F: -3

#16 O=C(C[C@H]1C[C@H]2c3cc(NC(=O)CC4CC4)ccc3O[C@H]2[C@@H](CO)O1)NCc1cccnc1
  A: .	B: -11	C: .	D: .	E: .	F: .

#17 Cc1csc(NC(=O)c2ccco2)c1C(=O)c1ccccc1
  A: 10	B: .	C: 43	D: 0	E: 3	F: .

#18 Cc1sc(NC(=O)c2ccco2)c(C(=O)c2ccc(Cl)cc2)c1C
  A: -3	B: .	C: 97*	D: -3	E: 4	F: 21

#19 COc1ccc(CC(=O)N2CCN=C2SCc2cccc([N+](=O)[O-])c2)cc1
  A: 1	B: 12	C: 99*	D: 3	E: -2	F: -18

#20 O=C(C1CCCCC1)N1CCN=C1SCc1cccc([N+](=O)[O-])c1
  A: -7	B: -10	C: 100*	D: 2	E: 4	F: -10

#21 O=C(C1CCCCC1)N1CCN=C1SCc1cccnc1
  A: -7	B: -9	C: 100*	D: 0	E: 8	F: 8

#22 O=C1O[C@@H](c2ccccc2)[C@@H](c2ccccc2)N2[C@@H](c3ccccc3OCCO)[C@]3(C(=O)Nc4ccc(C#CCCO)cc43)[C@@H](C(=O)O)[C@H]12
  A: .	B: 11	C: .	D: .	E: .	F: .

#23 C[C@H](CO)N1C[C@H](C)[C@@H](CN(C)C(=O)C2CC2)Oc2cc(C#Cc3ccccn3)ccc2S1(=O)=O
  A: .	B: 6	C: .	D: .	E: .	F: .

#24 O=C(Oc1ccc(=O)n(-c2ccccc2)n1)c1ccccc1
  A: 81*	B: 0	C: 0	D: 0	E: 0	F: -5

#25 O=C(COC(=O)Cc1c(Cl)cccc1Cl)NCc1ccccc1
  A: .	B: -10	C: .	D: -1	E: 5	F: .

#26 O=C(CCl)NCc1c(Cl)cccc1-n1cccc1
  A: -3	B: -10	C: 96*	D: -2	E: 12	F: 10

#27 COc1ccc(-c2nc3cnccn3c2NCc2ccccc2)cc1SC1CCCCC1
  A: 29*	B: 10	C: .	D: 1	E: 9	F: .

#28 Cc1cccc(C)c1Nc1c(-c2ccc(N3CCOCC3)cc2)nc2cnccn12
  A: -3	B: -7	C: 99*	D: -2	E: 8	F: .

#29 COc1cc(-c2nc3cnccn3c2Nc2c(C)cccc2C)ccc1O
  A: -3	B: -8	C: 98*	D: -1	E: 4	F: 4

#30 COc1cc(-c2nc3cnccn3c2NC(C)(C)CC(C)(C)C)ccc1O
  A: 1	B: -7	C: 99*	D: 3	E: 2	F: 16

Next section, overlapping the part above by 2 compounds.
Screens by letter – A = HDAC3 inhib; B = UUG fidelity; C = ALR H2O2 inh; D = MC4R ag barr; E = MC4R antag cAMP; F = NALP1 yeast inh
#29 COc1cc(-c2nc3cnccn3c2Nc2c(C)cccc2C)ccc1O
  A: -3	B: -8	C: 98*	D: -1	E: 4	F: 4

#30 COc1cc(-c2nc3cnccn3c2NC(C)(C)CC(C)(C)C)ccc1O
  A: 1	B: -7	C: 99*	D: 3	E: 2	F: 16

#31 Cc1noc(C)c1NC(=O)N(C)C[C@@H]1Oc2ccc(NC(=O)Cc3cn(C)c4ccccc34)cc2C(=O)N([C@@H](C)CO)C[C@H]1C
  A: .	B: -4	C: .	D: .	E: .	F: .

#32 Cc1ccc(S(=O)(=O)N[C@@H]2CC[C@@H](CCNC(=O)CN3CCOCC3)O[C@@H]2CO)cc1
  A: .	B: -9	C: .	D: .	E: .	F: .

#33 CN(C)c1ccc(CNc2ccc3c(c2)ncn3C(C)(C)C)cc1
  A: 0	B: -6	C: 93*	D: 3	E: 3	F: 20

#34 CCn1cnc2cc(NCc3cccs3)ccc21
  A: -3	B: -25	C: ?	D: -1	E: 2	F: 9

#35 CC(C)(C)n1cnc2cc(NCc3cccs3)ccc21
  A: 4	B: -23	C: 71	D: -2	E: 5	F: 1

#36 CCn1cnc2cc(NCc3ccc(N(C)C)cc3)ccc21
  A: .	B: -31	C: 98*	D: -1	E: 2	F: 5

#37 CCN(CC)c1ccc(CNc2ccc3c(c2)ncn3CC)cc1
  A: 8	B: .	C: 98*	D: .	E: .	F: 10

#38 CC(=O)/C(=N\Nc1ccccc1)Sc1nncn1C
  A: 9	B: .	C: 98*	D: -2	E: 5	F: 28

#39 CC(=O)/C(=N\Nc1ccccc1)Sc1nnc(-c2ccccc2)n1-c1ccccc1
  A: 1	B: .	C: 2	D: -2	E: 5	F: -3

#40 Cc1ccc(N2CCN(S(=O)(=O)c3ccc4c(c3)NC(=O)C(C)C(=O)N4)CC2C)cc1 (stereo not given)
  A: -4	B: -4	C: 97*	D: 0	E: 6	F: 20

#41 COCCNC(=O)c1onc(CSc2ccc(C)c(C)c2)c1C(=O)O
  A: 0	B: -5	C: 90*	D: 0	E: 14	F: -3

#42 Cc1ccc(SCc2noc(C(=O)NC(C)C)c2C(=O)O)cc1C
  A: 1	B: -5	C: 96*	D: -1	E: 3	F: -2

#43 C[C@H]1CN([C@@H](C)CO)C(=O)c2cc(NS(=O)(=O)c3ccccc3)ccc2O[C@@H]1CN(C)S(=O)(=O)c1ccccc1
  A: .	B: 18	C: .	D: .	E: .	F: .

#44 CCn1nc(NS(=O)(=O)c2ccccc2[N+](=O)[O-])c2cc3cccc(C)c3nc21
  A: 8	B: 7	C: 92*	D: -3	E: 7	F: 0

#45 CCn1nc(NS(=O)(=O)c2ccccc2)c2cc3ccc(C)cc3nc21
  A: -5	B: -11	C: 4	D: -1	E: 0	F: 0

#46 CCn1nc(NS(=O)(=O)c2ccccc2)c2cc3cc(C)ccc3nc21
  A: -2	B: -7	C: 81*	D: -2	E: 1	F: 2

#47 CCn1nc(NS(=O)(=O)c2ccc([N+](=O)[O-])cc2)c2cc3cccc(C)c3nc21
  A: -2	B: -13	C: 44	D: -3	E: -3	F: 22

NALP1 yeast inh, hit marks shown above.
Screens by letter – A = HDAC3 inhib; B = UUG fidelity; C = ALR H2O2 inh; D = MC4R ag barr; E = MC4R antag cAMP; F = NALP1 yeast inh
#1 CCCCN(CC)CCNC(=O)CCC(=O)Nc1ccc2nc(N3CCN(C)CC3)cc(C)c2c1
  A: -21	B: 2	C: 0	D: -1	E: -9	F: 36*

#13 CCCCn1nnc(NC(=O)c2ccc(-c3ccccc3[N+](=O)[O-])o2)n1
  A: ?	B: -4	C: -17	D: -2	E: 3	F: 30*

Screening results (PubChem)
